Drawing on ChEMBL document CHEMBL1148338, “Structure-activity relationships at monoamine transporters for a series of N-substituted 3alpha-(bis[4-fluorophenyl]methoxy)tropanes: comparative molecular field analysis, synthesis, and pharmacological evaluation” (J Med Chem, 2004), this text covers Ki for one compound.

By UniProt entry, the sequences of proteins in these tests, tags left out.
UniProt P31652, whole entry: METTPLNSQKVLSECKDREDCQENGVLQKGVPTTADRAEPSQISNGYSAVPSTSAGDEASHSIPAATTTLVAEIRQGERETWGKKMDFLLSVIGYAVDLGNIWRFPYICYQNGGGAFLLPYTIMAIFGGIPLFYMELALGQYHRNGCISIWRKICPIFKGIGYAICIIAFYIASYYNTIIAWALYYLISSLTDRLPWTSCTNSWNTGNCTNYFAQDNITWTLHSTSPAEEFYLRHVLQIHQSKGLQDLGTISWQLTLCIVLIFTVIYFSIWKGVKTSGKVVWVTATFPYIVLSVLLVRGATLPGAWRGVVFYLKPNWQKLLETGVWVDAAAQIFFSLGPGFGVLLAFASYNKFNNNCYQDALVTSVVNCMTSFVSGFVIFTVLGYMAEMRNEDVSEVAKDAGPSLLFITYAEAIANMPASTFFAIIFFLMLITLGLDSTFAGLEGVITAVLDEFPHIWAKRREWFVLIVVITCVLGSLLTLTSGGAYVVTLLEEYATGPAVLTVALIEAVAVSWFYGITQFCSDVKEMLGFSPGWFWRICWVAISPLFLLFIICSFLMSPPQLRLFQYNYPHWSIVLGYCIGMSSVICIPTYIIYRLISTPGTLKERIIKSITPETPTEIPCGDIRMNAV

The target in the assay is Sodium-dependent serotonin transporter (Rattus norvegicus, UniProt P31652). Format: tissue-based, Brain.

A word on the Ki: it is a dissociation constant, usually derived from enzyme kinetics or from competition with a known ligand. A higher Ki goes with a looser hold on the target. With `COC(=O)[C@@H]1C2CC[C@@H](C[C@@H]1OC(=O)c1ccccc1)N2C` (single isomer, unassigned) [COCAINE], the inhibition constant (Ki) stood at 286 nM.
